## Apparent affinities of Ab-14 variants for a coronavirus HR2 peptide

Reference: Li et al. 2023, doi:10.1038/s41467-023-39022-2. File: FLAb, binding data.

All variants were tested on one target, the spike HR2 peptide PDVDLGDISGINAS (SARS-CoV-2).

Parent scFv Ab-14: VH joined to VL by a 15-residue (Gly4Ser)3 linker. Changes lie in the light chain CDRs alone.
VH: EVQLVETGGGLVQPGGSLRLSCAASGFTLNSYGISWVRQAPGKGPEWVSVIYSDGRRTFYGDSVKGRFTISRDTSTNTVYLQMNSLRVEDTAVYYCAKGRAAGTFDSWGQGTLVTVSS
VL: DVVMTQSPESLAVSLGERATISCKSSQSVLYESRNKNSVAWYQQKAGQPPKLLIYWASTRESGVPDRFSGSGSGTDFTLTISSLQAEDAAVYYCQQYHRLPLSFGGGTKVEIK

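The parent was found by panning a naive human phage display library on the peptide. Designed CDR sequences, proposed from the first random library and measured here. Group labels follow the data file (Ctrl: baseline library sampled from a position-specific scoring matrix, with some repeated check sequences; GP: Gaussian process model; HC: hill climbing; Gen: genetic algorithm; Gibbs: Gibbs sampling; a sequence that several methods proposed may carry one label only). Affinity was read by AlphaSeq, a pooled yeast mating assay with surface-displayed partners. Mating (16 h, 30 °C) was followed by selection of diploids and sequencing of their barcodes. The ratio of observed to expected reads was calibrated, replicate by replicate, on BCL2-family standards whose Kd was known from biolayer interferometry. Each pool was mated in six replicate cultures.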

Each variant is given by its three light chain CDRs, as the data file delimits them; those of the parent are KSSQSVLYESRNKNSVA, WASTRES, QQYHRLPLS. This list holds designs with at most six substitutions. Values are apparent Kd, the geometric mean of the replicates that gave a signal; lower means stronger binding. A pair that was not seen in any replicate is written "nd"; this usually means weak binding, but a binder can also be missed.

Variant KFSQSELTESRNKNSVA / WASTRES / QQYHRLPLS [Ctrl] gave 6.1 nM (6 of 6 replicates).
Variant KVSQSWLYESRNWNSVA / NASTRES / QQYHRLPLS [GP_Gen] gave 650 pM (6 of 6 replicates).
Variant KSSQSVLYESLNKNSVA / DASTRES / QPYHRLPLF [Ctrl] gave 8.2 nM (6 of 6 replicates).
Variant KLMQSVLYESRMKNSVA / NASQRES / QQYHRLPLS [GP_Gen] gave 1.3 nM (6 of 6 replicates).
Variant KSDQSVLYESSNKNSVA / WASTRPS / QQYHRLPLS [Ctrl] gave 120 nM (6 of 6 replicates).
Variant KVSQSVLYEDRNKNSVA / HASTRES / QQYHRLPLS [GP_Gen] gave 760 pM (6 of 6 replicates).
Variant KSPTSVLYESRNKNSVA / QASTRES / QDPHRLPLS [Ctrl] gave 720 pM (6 of 6 replicates).
Variant KSHQSFLYNSRNKNSVA / WATTRES / QQYHRLPLS [Ctrl] gave nd (0 of 6 replicates).
Variant RSSQSVLYESENKNSVA / WASTRAS / QQYQRLPLS [Ctrl] gave 7.6 nM (6 of 6 replicates).
Variant KLSMSWLYESRNKNSVA / GASTRES / QQYHRLPLS [GP_Gen] gave 720 pM (6 of 6 replicates).
Variant KLSQSVLYESRNKNSVA / WASTRES / QQYHRLVLS [Ctrl] gave nd (0 of 6 replicates).
Variant KSSQSVWYQSRNKNSVA / WASTRPS / QQYHRLPLS [Ctrl] gave 330 nM (2 of 6 replicates).
Variant KSSISYGYESRNKNSVA / AASTRES / QQYHRLPLS [GP_HC] gave 1.8 nM (6 of 6 replicates).
Variant KSSQSVLYEEWNKNSVA / WASTRES / QQYWRLPLS [Ctrl] gave 240 nM (1 of 6 replicates).
Variant KFSQSVPYESRTKNSVA / NASTRES / QQYHRLPLS [GP_HC] gave 1.4 nM (6 of 6 replicates).
Variant KSGQSVLYESRNKNNVA / WASTHES / QQYHRLPLS [Ctrl] gave 34 nM (1 of 6 replicates).
Variant KLYQSELYESRNKNSVA / NASYRES / QQYHRLPLS [GP_Gen] gave 1.6 nM (6 of 6 replicates).
Variant KLPQSNLYESRNKNSVA / NASTREV / QQYHRLPLS [GP_Gen] gave 540 pM (6 of 6 replicates).
Variant KSSQSELAESRNKNSVA / AATLRES / QQYHRLPLS [Ctrl] gave 1.8 nM (6 of 6 replicates).
Variant KYQQSELTESRNKNSVA / NASTRES / QQYHQLPLS [GP_Gibbs] gave 4.3 nM (6 of 6 replicates).
Variant KVSQSNLYESRNKNSVA / NASQRLS / QQYHRLPLS [GP_Gen] gave 1.0 nM (6 of 6 replicates).
Variant KSSQSVLYESRNFNSVA / WAITRES / QQYTRLPLS [Ctrl] gave nd (0 of 6 replicates).
Variant KSSQSVLYESRNKNSVA / AASTRES / QQYHRLKLS [Ctrl] gave 5.0 nM (6 of 6 replicates).
Variant KSSQSVEYESRNKNSVA / WASTRNS / QQYHRPPLS [Ctrl] gave 200 nM (2 of 6 replicates).
Variant KSSQSVLAESRNKNSVA / WASTRES / QQYHHLPLS [Ctrl] gave 2.7 nM (6 of 6 replicates).
Variant KLEQSQLYESRNKNSVA / NASTRES / QQYHRLPLS [GP_Gen] gave 310 pM (6 of 6 replicates).
Variant KDLQSVLYESRNKNSVA / EASTRED / QQYHRLPLS [GP_HC] gave 1.2 nM (6 of 6 replicates).
Variant KSSMSVEMESRNKNNVA / DASQRES / QQYHRLPLS [GP_Gibbs] gave 1.4 nM (6 of 6 replicates).
Variant KSSQSVPYESRNNNSVA / WASTRES / QQCHRLPLS [Ctrl] gave 230 nM (5 of 6 replicates).
Variant KLSQSVLYESRNKNSVA / DASTRES / QQYHRLMLS [GP_HC] gave 970 pM (6 of 6 replicates).

The opening 3 entries, copied out:

For KFSQSELTESRNKNSVA / WASTRES / QQYHRLPLS [Ctrl], the assay gave 6.1 nM (6 of 6 replicates).
For KVSQSWLYESRNWNSVA / NASTRES / QQYHRLPLS [GP_Gen], the assay gave 650 pM (6 of 6 replicates).
For KSSQSVLYESLNKNSVA / DASTRES / QPYHRLPLF [Ctrl], the assay gave 8.2 nM (6 of 6 replicates).

Values of this round are not directly comparable with the first-round values of the same sequences. Background: pairings of all light chain designs with three empty control strains gave a value in 4% of cases (median 430 nM, 5th percentile 38 nM). Values in that range, when seen in few replicates, are hard to tell from nonspecific mating. The authors' rule: three or more of the six replicates give a measured affinity, fewer mean a poor binder.